Common to all, as to format: in vivo
Series [1] is described as follows: Pharmacokinetics in dogs. To be noted: Beagle, dog, blood, iv, 1 mg/kg.
A short description of series [2]: Pharmacokinetics in Rhesus monkeys.
Series [3] in a line: Phase I pharmacokinetics, single PO dose. The conditions noted are these: human, blood, 4 mg.

Where a name gives a salt, the structure may show the parent alone.

Take `Cc1ccc2c(c1)c1c(n2CCc2ccccc2)CCN(C)C1` [AVN-101, 2,8-dimethyl-5-penethyl-2,3,4,5-tetra-hydro-1h-pyrido[[4,3-B]]indole hydrochloride]: the exposure (AUC) (as a rule, the area under the concentration-time curve, a measure of exposure) in series [1] was 2.29 ng·h/mL. The Tmax (as a rule, the time at which the peak concentration occurs) was 2 h in series [2] (Mean, PO 10 mg/kg); 2 h in series [2] (monkey 35189, PO 10 mg/kg); 0.0167 h in series [2] (rhesus monkey, in vivo, iv, 2 mg/kg); 2 h in series [2] (rhesus monkey, in vivo, po, 10 mg/kg). For the same compound, the Cmax (commonly the peak of the concentration-time curve) in series [3] turned out to be 0.0229 ± 0.0164 ng/mL.
